{"sequences": {"note": "Sequences of proteins named here, by UniProt entry; tags and fusion partners are left off. A change or cut given only in a name is not applied to a line headed by its entry.", "UniProt P02791": "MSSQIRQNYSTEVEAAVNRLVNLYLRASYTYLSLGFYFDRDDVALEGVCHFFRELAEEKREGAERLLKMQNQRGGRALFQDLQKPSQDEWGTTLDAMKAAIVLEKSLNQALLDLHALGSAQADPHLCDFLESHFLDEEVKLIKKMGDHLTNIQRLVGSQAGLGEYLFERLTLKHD"}, "source": "PubChem BioAssay AID485281", "about": "(National Center for Advancing Translational Sciences (NCATS), 2010)", "target": "Ferritin light chain (Equus caballus) (UniProt P02791)", "experiment": "qHTS Assay for Identification of Novel General Anesthetics; note: nearly all actives have a fitted effect of over 20% in size", "settings": "apoferritin/1-aminoanthracene competitive binding, fluorescence; at 77.5 µM (top of the series) unless noted", "note": "“And” between values parts separate entries of the source, which are not always exact repeats. Identical values can stand only once. Only a part is listed here, and it is no random draw. Inconclusive results are not listed. The source made the active and inactive calls. Calls come from the whole dose curve; as a rule, active = well fitted inhibition curve with a large enough effect; inconclusive = small, poorly fitted or top-dose-only effect; inactive = no such curve, though single readings can be large or run the other way. % is set by controls: 0 for no effect and ±100 for the full control effect.", "data": [{"compound": "O=P(Nc1nccs1)(c1ccccc1)c1ccccc1", "values": [{"measurement": "activity change, negative = displacement", "value": "inactive: -10.7%"}]}, {"compound": "CC(C)C(=O)NC(Sc1ccccc1)C(Cl)(Cl)Cl", "note": "(stereo not given)", "values": [{"measurement": "activity change, negative = displacement", "value": "inactive: -0.91%"}]}, {"compound": "CCOc1ccc(C2=NCC(CBr)S2)cc1", "note": "(stereo not given)", "values": [{"measurement": "activity change, negative = displacement", "value": "inactive: -21.1%"}]}, {"compound": "CC(=O)Nc1ccc(Oc2c([N+](=O)[O-])cc([N+](=O)[O-])cc2[N+](=O)[O-])cc1", "values": [{"measurement": "activity change, negative = displacement", "value": "inactive: -18.5%"}]}, {"compound": "CC(=O)Nc1ccc([As](=O)(O)O)c(O)c1", "values": [{"measurement": "activity change, negative = displacement", "value": "inactive: 6.82%"}]}, {"compound": "C[C@H]1OP(=O)(Oc2ccccc2)C[C@@H]2O[C@@H]21", "note": "(stereo not given in full)", "values": [{"measurement": "activity change, negative = displacement", "value": "inactive: -9.86%"}]}, {"compound": "C[C@@H]1C=CCP(=O)(Oc2ccccc2)O1", "note": "(stereo not given in full)", "values": [{"measurement": "activity change, negative = displacement", "value": "inactive: -5.76%"}]}, {"compound": "CC(=O)c1ccc(N2CC2c2ccncc2)cc1", "note": "(stereo not given)", "values": [{"measurement": "activity change, negative = displacement", "value": "inactive: -8.6%"}]}, {"compound": "Cc1ccc(NP(=O)(Oc2cccc(C)c2)Oc2cccc(C)c2)nc1", "values": [{"measurement": "activity change, negative = displacement", "value": "inactive: 11.8%"}]}, {"compound": "c1ccc(-c2nn[nH]n2)c(-c2nn[nH]n2)c1", "values": [{"measurement": "activity change, negative = displacement", "value": "inactive: 2.53%"}]}, {"compound": "O=C(NC1CCS(=O)(=O)C1)NP(=S)(Oc1ccccc1)Oc1ccccc1", "note": "(stereo not given)", "values": [{"measurement": "activity change, negative = displacement", "value": "inactive: -15.2%"}]}, {"compound": "CCNC(=S)/N=C(\\N)N[N+](=O)[O-]", "values": [{"measurement": "activity change, negative = displacement", "value": "inactive: -12%"}]}, {"compound": "O=c1c2cc([N+](=O)[O-])ccc2[nH]c2c([N+](=O)[O-])cc([N+](=O)[O-])cc12", "values": [{"measurement": "activity change, negative = displacement", "value": "inactive: -22.6%"}]}, {"compound": "CN(C)C(=O)Oc1noc2ccccc12", "values": [{"measurement": "activity change, negative = displacement", "value": "inactive: 1.8%"}]}, {"compound": "Cc1ccccc1OP(=O)(Nc1ccccn1)Oc1ccccc1C", "values": [{"measurement": "activity change, negative = displacement", "value": "inactive: -6.87%"}]}, {"compound": "CCC(=O)N1C2C3N(C(=O)CC)C1C1N(C(=O)CC)C(C(N1C(=O)CC)N3C(=O)CC)N2C(=O)CC", "values": [{"measurement": "activity change, negative = displacement", "value": "inactive: -8.91%"}]}, {"compound": "O=C(OC1CN2CCC1CC2)c1ccccc1", "note": "(stereo not given)", "values": [{"measurement": "activity change, negative = displacement", "value": "inactive: 5.69%"}]}, {"compound": "CC(=O)NC(SC(=S)N(CC(C)C)CC(C)C)C(Cl)(Cl)Cl", "note": "(stereo not given)", "values": [{"measurement": "activity change, negative = displacement", "value": "inactive: -5.94%"}]}, {"compound": "Cc1ccc(OP(=O)(Nc2ccccn2)Oc2ccc(C)cc2)cc1", "values": [{"measurement": "activity change, negative = displacement", "value": "inactive: -5.36%"}]}, {"compound": "COC(=O)c1cc2c(s1)N=C(c1ccccc1)N(C)P2(=O)N1CCOCC1", "note": "(stereo not given)", "values": [{"measurement": "activity change, negative = displacement", "value": "inactive: -10.3%"}]}, {"compound": "CN(C(=O)Cc1ccc(Cl)c(Cl)c1)[C@H]1CCCC[C@@H]1N1CCCC1", "values": [{"measurement": "activity change, negative = displacement", "value": "inactive: -3.4% [middle of 5 runs]"}]}, {"compound": "Cc1ccc(NP(=O)(Oc2ccccc2F)Oc2ccccc2F)nc1", "values": [{"measurement": "activity change, negative = displacement", "value": "inactive: -5.51%"}]}, {"compound": "Cc1cc(SC(NC(=O)c2ccc(F)cc2)C(Cl)(Cl)Cl)ncn1", "note": "(stereo not given)", "values": [{"measurement": "activity change, negative = displacement", "value": "inactive: -11.7%"}]}, {"compound": "CCOP(=O)(Nc1ccccc1)OCC", "values": [{"measurement": "activity change, negative = displacement", "value": "inactive: -3.16% and inactive: -9.97%"}]}, {"compound": "O=P(Nc1nc2ccc(Cl)cc2s1)(c1ccccc1)c1ccccc1", "values": [{"measurement": "activity change, negative = displacement", "value": "inactive: -7.92%"}]}, {"compound": "CC(=O)Nc1ccc([As](=O)(O)O)cc1", "values": [{"measurement": "activity change, negative = displacement", "value": "inactive: 25.9%"}]}, {"compound": "O=C(O)c1ccccc1[As](=O)(O)O", "values": [{"measurement": "activity change, negative = displacement", "value": "inactive: 11.2%"}]}, {"compound": "Nc1cccc2ccc([As](=O)(O)O)cc12", "values": [{"measurement": "activity change, negative = displacement", "value": "inactive: 51.6%"}]}, {"compound": "CCN(N=Nc1nonc1N)c1nonc1N", "values": [{"measurement": "activity change, negative = displacement", "value": "inactive: -0.511%"}]}, {"compound": "O=[N+]([O-])c1cc([N+](=O)[O-])c(CCN2CCOCC2)c([N+](=O)[O-])c1", "values": [{"measurement": "activity change, negative = displacement", "value": "inactive: -6.2%"}]}, {"compound": "CN1CCCC(OC(=O)C(c2ccccc2)c2ccccc2)C1", "note": "(stereo not given)", "values": [{"measurement": "activity change, negative = displacement", "value": "inactive: 1.83%"}]}, {"compound": "Cc1ccc(OP(=O)(Nc2nccs2)Oc2ccc(C)cc2)cc1", "values": [{"measurement": "activity change, negative = displacement", "value": "inactive: -13.8%"}]}, {"compound": "COc1ccccc1OP(=O)(Nc1ccc(C)cn1)Oc1ccccc1OC", "values": [{"measurement": "activity change, negative = displacement", "value": "inactive: -5.35%"}]}, {"compound": "Cc1ccc(N/C(=N/P(=O)(N2CCOCC2)N2CCOCC2)N2CCOCC2)cc1", "values": [{"measurement": "activity change, negative = displacement", "value": "inactive: -8.16%"}]}, {"compound": "NC(=O)c1cc([N+](=O)[O-])cc([N+](=O)[O-])c1N", "values": [{"measurement": "activity change, negative = displacement", "value": "inactive: -7.36%"}]}, {"compound": "O=C(NC(Sc1ccncn1)C(Cl)(Cl)Cl)c1ccccc1", "note": "(stereo not given)", "values": [{"measurement": "activity change, negative = displacement", "value": "inactive: -2.24%"}]}, {"compound": "Cc1c2non([O-])c-2c(C)[n+](=O)[n+]1[O-]", "values": [{"measurement": "activity change, negative = displacement", "value": "inactive: -17.8%"}]}, {"compound": "Nc1cc(N)c2nonc2c1[N+](=O)[O-]", "values": [{"measurement": "activity change, negative = displacement", "value": "inactive: 6.78%"}]}, {"compound": "CC(C)CC(=O)NC(Sc1ccc(Cl)cc1)C(Cl)(Cl)Cl", "note": "(stereo not given)", "values": [{"measurement": "activity change, negative = displacement", "value": "inactive: -21.8%"}]}, {"compound": "CCc1nc2c(n1)c1c(non1O)c1c2no[n+]1[O-]", "values": [{"measurement": "activity change, negative = displacement", "value": "inactive: -18.6%"}]}, {"compound": "Cc1ccc(NP(=O)(Oc2ccccc2)Oc2ccccc2)nc1", "values": [{"measurement": "activity change, negative = displacement", "value": "inactive: -3.5%"}]}, {"compound": "CC(=O)N1C2C3N(C(C)=O)C1C1N(C(C)=O)C(C(N1C(C)=O)N3C(C)=O)N2C(C)=O", "values": [{"measurement": "activity change, negative = displacement", "value": "inactive: -3.17%"}]}, {"compound": "O=[N+]([O-])c1cccc2n[nH]nc12", "values": [{"measurement": "activity change, negative = displacement", "value": "inactive: -0.144%"}]}, {"compound": "COc1ccc(C2=NCC(CBr)S2)cc1", "note": "(stereo not given)", "values": [{"measurement": "activity change, negative = displacement", "value": "inactive: -16%"}]}, {"compound": "CC(=O)C1=CCCC2CCC1N2", "note": "(stereo not given)", "values": [{"measurement": "activity change, negative = displacement", "value": "inactive: -1.36% and inactive: 3.1%"}]}, {"compound": "CN(C)C(=O)OCCc1n(C)cc[n+]1C", "values": [{"measurement": "activity change, negative = displacement", "value": "inactive: -9.12%"}]}, {"compound": "CC(C)=N/N=C(\\N)N[N+](=O)[O-]", "values": [{"measurement": "activity change, negative = displacement", "value": "inactive: -1.73%"}]}, {"compound": "CCN(/C(=N/P(=O)(N1CCOCC1)N1CCOCC1)N1CCOCC1)c1ccc(OC)cc1", "values": [{"measurement": "activity change, negative = displacement", "value": "inactive: -2.07%"}]}, {"compound": "C[N+]1=C2C=CC=CC=C2SC12C([N+](=O)[O-])=CC([N+](=O)[O-])=C[C-]2[N+](=O)[O-]", "note": "(stereo not given)", "values": [{"measurement": "activity change, negative = displacement", "value": "inactive: -6.8%"}]}, {"compound": "Nc1ccc([As](=O)(O)c2ccc(N)cc2)cc1", "values": [{"measurement": "activity change, negative = displacement", "value": "inactive: 8.62%"}]}, {"compound": "O=C(Nc1cc([As](=O)(O)O)ccc1O)c1ccccc1", "values": [{"measurement": "activity change, negative = displacement", "value": "inactive: 30.5%"}]}, {"compound": "O=C(O)CNc1ccc([As](=O)(O)O)cc1", "values": [{"measurement": "activity change, negative = displacement", "value": "inactive: 1%"}]}, {"compound": "O=[N+]([O-])c1cccc(NC2=NCC(CBr)S2)c1", "note": "(stereo not given)", "values": [{"measurement": "activity change, negative = displacement", "value": "inactive: -17%"}]}, {"compound": "O=[N+]([O-])c1ncn(CCn2ncnc2[N+](=O)[O-])n1", "values": [{"measurement": "activity change, negative = displacement", "value": "inactive: -0.814%"}]}, {"compound": "CC(C)(C)C(=O)NC(Sc1ccncn1)C(Cl)(Cl)Cl", "note": "(stereo not given)", "values": [{"measurement": "activity change, negative = displacement", "value": "inactive: 4.73%"}]}]}
